Data reported in patent US20240108601A1, “TREATMENT OF MENTAL DISORDERS” (GH Research Ireland Limited, priority 2022, published 2024).

Tests used:
[1] = LC-MS/MS of 5-MeO-DMT, bufotenine and 5-MIAA in urine, serum and breastmilk of lactating PPD patient; infant exposure estimates; details: second patient
From the text: When determining the potential impact of maternal drug administration on a breastfed infant, it is standard practice to calculate the Relative Infant Dose (RID) (Bennett, P. N., and L. J. Notarianni. “Risk from drugs in breast milk: an analysis by relative dose.” Br J Clin Pharmacol 42.5 (1996): P673-4). The RID is the dosage (in μg/kg/day) the infant is exposed to by the intake of breast milk, divided by the dosage (in μg/kg/day) the mother receives.
Using estimates for daily intake of breast milk and the number of feeds as well as the measured breast milk concentrations the exposure of the infant can be determined.
For example, a published estimate for daily intake of breast milk as a function of infant weight is 150 ml/kg/day. To model the exposure, it is assumed that an infant of 5 kg is fed three times over 24 hours, receiving 250 ml breast milk each time.
The second patient was lactating, and, per the clinical trial protocol, breastmilk samples were collected pre-dosing and at multiple timepoints after administration of the last dose. […] Similar analyses were carried out on patient serum and urine samples.

[2] = tested on: human hepatocytes; test: Metabolite identification in human hepatocyte suspension; details: 5-MeO-DMT free base 10 μM, incubated up to 120 minutes
Protocol: For incubations with cryopreserved hepatocytes, the 2 mM stock solution was diluted with Leibovitz L-15 medium to a concentration of 20 μM or 2 μM. An aliquot (250 μL) of the 20 μM and 2 μM test substance formulations was added to each hepatocyte incubation sample (250 μL), as appropriate, so that the final test substance concentration in the incubations was 10 μM or 1 μM, respectively, and incubations contained less than 1% (v/v) solvent.
Incubations were performed at ca. 37° C. in a shaking water bath (total incubation volume 0.5 mL). For 1 μM, incubations were terminated after 0, 5, 10, 20, 30, 60 and 120 minutes, by the addition of ice-cold acetonitrile (0.5 mL).
The samples were vortex mixed and centrifuged at ca 13,000 rpm for 10 minutes at room temperature. […]
Prior to sample analysis a 100 μL aliquot of each sample was evaporated to near dryness under a steady stream of nitrogen at room temperature, and subsequently reconstituted in 50 μL of mobile phase A (0.1% formic acid in water). Each sample (0, 30 and 120-minute, 10 μM) was analysed using accurate mass LC-MS to determine relative levels of parent compound at each time-point, and determine the profile of metabolites formed. Appropriate blank and control samples were also analysed. The 10 and 60-minute, 10 μM incubation samples were not analysed and were stored at −80° C. […]

[3] = tested on: human hepatocytes (Hμrel HumanPool co-culture); test: Metabolic stability in Hμrel human hepatocyte co-culture

## 5-Methoxyindole acetic acid [5-MIAA]
[1]
  Fold lower breast milk concentration at 24 hours than at one hour: ~400 fold
[1]; 2.5 hours
  Urine concentration relative to serum concentration: approx. 127 times
[2]; listed as 5-Methoxyindole acetic acid (5-MIAA)
  Relative Proportion of compounds identified: 61%
[2]; acetic acid
  Relative Proportion of compounds identified: about 60%
[3]
  Predicted hepatic extraction ratio: 2%
[3]; 1 μM Hepatocytes, 0 h
  Relative LC/MS peak area remaining: 100%
[3]; 1 μM Hepatocytes, 1 h
  Relative LC/MS peak area remaining: 98%
[3]; 1 μM Hepatocytes, 2 h
  Relative LC/MS peak area remaining: 100%
[3]; 1 μM Hepatocytes, 4 h
  Relative LC/MS peak area remaining: 99%
[3]; 1 μM Hepatocytes, 8 h
  Relative LC/MS peak area remaining: 95%
[3]; 1 μM Hepatocytes, 24 h
  Relative LC/MS peak area remaining: 99%
[3]; 1 μM Hepatocytes, 48 h
  Relative LC/MS peak area remaining: 88%
[3]; 1 μM Hepatocytes, 72 h
  Relative LC/MS peak area remaining: 82%
[3]; 1 μM Stromal cells, 0 h
  Relative LC/MS peak area remaining: 100%
[3]; 1 μM Stromal cells, 4 h
  Relative LC/MS peak area remaining: 103%
[3]; 1 μM Stromal cells, 8 h
  Relative LC/MS peak area remaining: 107%
[3]; 1 μM Stromal cells, 24 h
  Relative LC/MS peak area remaining: 108%
[3]; 1 μM Stromal cells, 48 h
  Relative LC/MS peak area remaining: 111%
[3]; 1 μM Stromal cells, 72 h
  Relative LC/MS peak area remaining: 135%
[3]; 10 μM Hepatocytes, 0 h
  Relative LC/MS peak area remaining: 100%
[3]; 10 μM Hepatocytes, 1 h
  Relative LC/MS peak area remaining: 97%
[3]; 10 μM Hepatocytes, 2 h
  Relative LC/MS peak area remaining: 100%
[3]; 10 μM Hepatocytes, 4 h
  Relative LC/MS peak area remaining: 103%
[3]; 10 μM Hepatocytes, 8 h
  Relative LC/MS peak area remaining: 96%
[3]; 10 μM Hepatocytes, 24 h
  Relative LC/MS peak area remaining: 96%
[3]; 10 μM Hepatocytes, 48 h
  Relative LC/MS peak area remaining: 86%
[3]; 10 μM Hepatocytes, 72 h
  Relative LC/MS peak area remaining: 75%
[3]; 10 μM Stromal cells, 0 h
  Relative LC/MS peak area remaining: 100%
[3]; 10 μM Stromal cells, 4 h
  Relative LC/MS peak area remaining: 101%
[3]; 10 μM Stromal cells, 8 h
  Relative LC/MS peak area remaining: 106%
[3]; 10 μM Stromal cells, 24 h
  Relative LC/MS peak area remaining: 97%
[3]; 10 μM Stromal cells, 48 h
  Relative LC/MS peak area remaining: 103%
[3]; 10 μM Stromal cells, 72 h
  Relative LC/MS peak area remaining: 115%
[3]; human hepatocytes, 1 μM
  Half-life: 15 400 min
